The source of these data is patent publication US11716992B2, “5A5B6C tricyclic spirolactone derivative, preparation method therefor and use thereof” (NANKAI UNIVERSITY, priority 2017, dated 2023).

The subject of the data set is Apis mellifera ligustica Spin. As to conditions: for Death number after 24 h / Death number after 48 h: per replicate of 10 bees.
The mark [1] stands for this setting: dosage 7.08 × 10^−3 μg a.i./bee.

Several values for one entry are separate records, joined by “and”; a condition that tells them apart may be missing. Equal values may be shown once. Read-outs that look alike come from different tables or passages of the source.

As to Ryanodine [reference compound], the “Death rate after 48 h (%)” value (dosage 0.102 μg a.i./bee) came to 65.0%; the “Death rate after 48 h (%)” value (dosage 0.275 μg a.i./bee) came out at 85.0%; the “Death rate after 48 h (%)” value (dosage 0.395 μg a.i./bee) came out at 100%; the “Death rate after 48 h (%)” value (dosage 1.19 μg a.i./bee) was found to be 90.0%; the “Death rate after 48 h (%)” value (dosage 1.54 μg a.i./bee) came to 100%; the “Death rate after 48 h (%)” value (dosage 3.65 μg a.i./bee) is reported as 100%. The “Death rate after 48 h (%)” value reads like this: under setting [1], 0%; (dosage 8.80 × 10^−3 μg a.i./bee) 30.0%. Besides, the “Death number after 24 h” value by setting is: (dosage 0.102 μg a.i./bee) 1 and 0; (dosage 0.275 μg a.i./bee) 2 and 1; (dosage 0.395 μg a.i./bee) 4 and 8; (dosage 1.19 μg a.i./bee) 2 and 1; (dosage 1.54 μg a.i./bee) 4 and 5; (dosage 3.65 μg a.i./bee) 1 and 5. Under setting [1], the “Death number after 24 h” value was found to be 0. The “Death number after 48 h” value is 6 and 7 (dosage 0.102 μg a.i./bee); 7 and 10 (dosage 0.275 μg a.i./bee); 10 (dosage 0.395 μg a.i./bee); 8 and 10 (dosage 1.19 μg a.i./bee); 10 (dosage 1.54 μg a.i./bee); 10 (dosage 3.65 μg a.i./bee). The “Death number after 48 h” value under setting [1] is recorded as 0.
